Measurements: patent publication US8969312B2, “Low side effect pharmaceutical composition containing antituberculosis drugs” (priority 2011, dated 2015)

Chains of the proteins cited; added tags and fusions are not shown. Lines headed by an entry give the natural chain unless they say otherwise; changes in a name come on top.
UniProt P05181: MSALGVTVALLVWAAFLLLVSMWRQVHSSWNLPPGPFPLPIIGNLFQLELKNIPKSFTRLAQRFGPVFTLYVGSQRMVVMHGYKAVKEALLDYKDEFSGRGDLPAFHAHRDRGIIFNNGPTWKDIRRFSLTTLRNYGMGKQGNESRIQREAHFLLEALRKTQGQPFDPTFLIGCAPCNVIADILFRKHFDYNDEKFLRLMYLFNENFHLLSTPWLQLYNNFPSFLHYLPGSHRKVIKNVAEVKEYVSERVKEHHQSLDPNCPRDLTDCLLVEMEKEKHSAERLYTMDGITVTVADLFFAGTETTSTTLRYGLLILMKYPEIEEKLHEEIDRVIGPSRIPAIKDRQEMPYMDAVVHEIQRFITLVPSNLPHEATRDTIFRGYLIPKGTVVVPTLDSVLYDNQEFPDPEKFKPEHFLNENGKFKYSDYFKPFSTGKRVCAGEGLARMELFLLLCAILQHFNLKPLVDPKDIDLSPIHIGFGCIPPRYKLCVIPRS

Legend:
[1] = target: human liver microsomal cytochrome P450 2E1 (CYP2E1) (Homo sapiens, UniProt P05181); assay: Human liver microsomal CYP2E1, chlorzoxazone 6-hydroxylation; settings: for Minimum Effective Dose: Table 7;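 as to all read-outs here: chlorzoxazone added as substrate, 6-hydroxychlorzoxazone formation quantified by LC/MS/MS after 30 min at 37 °C with NADP+ regenerating system, compared against solvent control without test sample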
amidase = assay: Mouse liver microsomal amidase, isoniazid to isonicotinic acid; type: biochemical

`OCc1ccccc1` [Benzyl alcohol] was tested, and the “Minimum Effective Dose” value [1] was 158 mg.
`OC[C@@H](O)[C@@H](O)[C@H](O)[C@@H](O)CO` [Sorbitol] was tested, and the “Minimum Effective Dose” value [1] was 158 mg.
With `Oc1cc(O)c2c(c1)O[C@@H](c1ccc(O)c(O)c1)[C@@H](O)C2` [(+)-Epicatechin] the “Inhibition of CYP 2E1” value ([1]; 66 μM) was 44.32 ± 1.25%.
`O=c1c(O)c(-c2ccc(O)cc2)oc2cc(O)cc(O)c12` [Kaempferol] gave an Amidase inhibition (amidase; 1 uM) of 7.3 ± 8.2%, an Amidase inhibition (amidase; 10 uM) of 25.3 ± 7.8% and an Amidase inhibition (amidase; 100 uM) of 49.1 ± 8.6%.
